Reference: ChEMBL document CHEMBL1141492, “Potent, exceptionally selective, orally bioavailable inhibitors of TNF-alpha Converting Enzyme (TACE): novel 2-substituted-1H-benzo[d]imidazol-1-yl)methyl)benzamide P1' substituents” (Bioorg Med Chem Lett, 2008)

Target: T1, Disintegrin and metalloproteinase domain-containing protein 10 (Homo sapiens, UniProt O14672)
T1 sequence (O14672 whole entry): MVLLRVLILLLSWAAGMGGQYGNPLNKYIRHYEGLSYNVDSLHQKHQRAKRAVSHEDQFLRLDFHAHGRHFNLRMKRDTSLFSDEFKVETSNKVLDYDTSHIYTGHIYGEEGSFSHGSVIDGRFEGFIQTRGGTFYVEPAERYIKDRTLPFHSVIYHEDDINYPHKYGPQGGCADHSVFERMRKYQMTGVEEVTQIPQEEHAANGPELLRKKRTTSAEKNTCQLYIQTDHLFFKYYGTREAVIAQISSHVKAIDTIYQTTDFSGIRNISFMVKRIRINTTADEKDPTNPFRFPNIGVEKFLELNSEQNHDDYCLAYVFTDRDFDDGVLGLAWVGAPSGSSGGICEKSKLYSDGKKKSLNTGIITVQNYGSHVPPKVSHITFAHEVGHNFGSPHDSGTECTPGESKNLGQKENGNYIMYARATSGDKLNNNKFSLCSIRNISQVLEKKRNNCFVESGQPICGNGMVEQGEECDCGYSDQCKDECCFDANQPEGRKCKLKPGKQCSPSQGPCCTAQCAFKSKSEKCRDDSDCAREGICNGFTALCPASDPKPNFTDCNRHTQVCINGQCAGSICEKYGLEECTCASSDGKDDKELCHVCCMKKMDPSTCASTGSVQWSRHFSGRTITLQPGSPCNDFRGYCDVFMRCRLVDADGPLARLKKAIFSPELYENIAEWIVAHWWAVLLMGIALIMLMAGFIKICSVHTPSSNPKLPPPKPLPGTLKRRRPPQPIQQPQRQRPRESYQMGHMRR
Assay: Inhibition of ADAM10

Ki: > 10 µM
SMILES: O=C(N[C@@H]1CCOC[C@@H]1C(=O)NO)c1ccc(Cn2c(C(F)(F)F)nc3ccccc32)cc1
